The values below come from ChEMBL document CHEMBL6121069, “A Medicinal Chemistry Perspective on Protein Tyrosine Phosphatase Nonreceptor Type 2 in Tumor Immunology” (J Med Chem, 2025).

In the assay the target is T1, Tyrosine-protein phosphatase non-receptor type 1 (Homo sapiens, UniProt P18031).
T1 sequence (P18031 whole entry): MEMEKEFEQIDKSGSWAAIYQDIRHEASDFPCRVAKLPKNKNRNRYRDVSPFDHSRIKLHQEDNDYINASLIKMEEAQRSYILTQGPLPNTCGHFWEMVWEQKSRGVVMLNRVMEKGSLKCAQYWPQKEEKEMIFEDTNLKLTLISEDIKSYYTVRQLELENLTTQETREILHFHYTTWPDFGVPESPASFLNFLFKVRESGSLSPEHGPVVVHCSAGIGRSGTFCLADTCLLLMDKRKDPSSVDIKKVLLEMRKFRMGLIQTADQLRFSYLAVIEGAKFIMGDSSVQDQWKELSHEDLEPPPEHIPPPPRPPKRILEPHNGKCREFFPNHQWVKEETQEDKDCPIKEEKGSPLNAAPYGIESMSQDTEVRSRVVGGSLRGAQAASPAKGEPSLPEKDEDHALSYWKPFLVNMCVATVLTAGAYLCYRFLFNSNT

Regarding `O=C(O)COc1c(C(=O)O)sc2ncccc12`, the affinity corresponds to a Ki of 0.23 µM.
